Here are results for 1 compound from US11014933B2 (priority 2018, dated 2021).

Protein sequences, listed by entry. Tags and fused reporters are not part of them.
UniProt P33535, whole entry: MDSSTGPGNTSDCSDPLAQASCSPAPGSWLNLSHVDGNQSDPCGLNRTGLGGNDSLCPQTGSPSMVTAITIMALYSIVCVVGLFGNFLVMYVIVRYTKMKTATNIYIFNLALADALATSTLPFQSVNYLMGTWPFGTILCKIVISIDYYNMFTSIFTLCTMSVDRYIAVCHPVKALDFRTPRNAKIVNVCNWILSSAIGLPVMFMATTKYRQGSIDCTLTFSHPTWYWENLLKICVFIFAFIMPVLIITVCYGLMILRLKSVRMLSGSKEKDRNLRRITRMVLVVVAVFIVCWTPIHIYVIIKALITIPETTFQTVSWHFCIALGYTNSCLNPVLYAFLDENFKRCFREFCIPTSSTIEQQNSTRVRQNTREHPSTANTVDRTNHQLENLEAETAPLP

This experiment concerns the target rat MOR (Rattus norvegicus, UniProt P33535). Nature of the experiment: MOR internalization in N2A-HA-rMOR cells. Conditions: NFP and etorphine incubated together, 10 μM respectively. Type of experiment: cell-based.

On to `O=C(N[C@@H]1CC[C@@]2(O)[C@H]3Cc4ccc(O)c5c4[C@@]2(CCN3CC2CC2)[C@H]1O5)c1ccncc1F` [Compound 1], for which the “Effect on etorphine-induced internalization of the MOR” value is reported as “internalization of the MOR induced by etorphine was reduced”.
